Values quoted from earlier work in patent publication US4315942A, “Intravenously administrable iron supplement” (New England Medical Center, Inc., priority 1979, dated 1982).

Settings: in vivo, cited from earlier work

iron dextran
anaphylaxis (iv): unacceptable incidence of anaphylaxis
pain on intramuscular injection: painful
